Here are results for four compounds from ChEMBL document CHEMBL1145387, “Carbonic anhydrase activators: activation of the human isoforms VII (cytosolic) and XIV (transmembrane) with amino acids and amines” (Bioorg Med Chem Lett, 2007).

Data set [1] concerns the target Carbonic anhydrase 7 (Homo sapiens) (UniProt P43166). Briefly: Activation of human recombinant CA7 by CO2 hydrase assay.
Data set [2] addresses Carbonic anhydrase 14 (Homo sapiens) (UniProt Q9ULX7). Briefly: Activation of human recombinant CA14 by CO2 hydrase assay.
For data set [3], the system named is N[C@@H](Cc1ccccc1)C(=O)O. The note with it: Homo sapiens; 10 uM.
The subject of the next data set is N[C@H](Cc1ccccc1)C(=O)O. The note with it: Homo sapiens; 10 uM.
The subject of data set [4] is N[C@@H](Cc1ccccc1)C(=O)O. The note with it: Homo sapiens; 10 uM. This is another data set of the same source.

As to `N[C@@H](Cc1ccccc1)C(=O)O`, the KA in data set [1] stood at 10.9 µM; in data set [2], 0.24 µM.

As for `N[C@H](Cc1ccccc1)C(=O)O`, the KA in data set [2] was 7.21 µM.

Usually kcat stands for the number of substrate molecules converted per active site and unit of time at saturation. Regarding “Carbonic anhydrase 1 (Homo sapiens), P00915”, in the data set on N[C@@H](Cc1ccccc1)C(=O)O [3], the kcat was 19.8 10^5/s.

Take “Carbonic anhydrase 2 (Homo sapiens) (from UniProt P00918)”: the kcat is 5.2 10^6/s in the data set with N[C@H](Cc1ccccc1)C(=O)O and 5.7 10^6/s in the data set on N[C@@H](Cc1ccccc1)C(=O)O [4].
